Legend:
[1] = tested on: CD22 surface expression in NALM6 cells; assay: CD22 surface expression assay by flow cytometry; format: cell-based, human; details: At 1 nM, relative to DMSO control
PKCδ-GFP fusion protein = assay: PKCδ-GFP translocation assay in living CHO-k1 cells (confocal microscopy); format: cell-based, Chinese hamster

CCCC=CC=CC(=O)O[C@H]1/C(=C/C(=O)OC)C[C@H]2C[C@H]([C@@H](C)O)OC(=O)C[C@H](O)C[C@@H]3C[C@H](OC(C)=O)C(C)(C)[C@](O)(C[C@@H]4C[C@H](OC(=O)Nc5ccccc5)C[C@H](/C=C/C(C)(C)[C@]1(O)O2)O4)O3
Fold increase CD22 expression [1]: 1.68 fold | time required for translocation (PKCδ-GFP fusion protein; 200 nM): about 15 minutes | concentration* (minimum effective concentration required to induce translocation of PKC-GFP to the membrane) (PKCδ-GFP fusion protein; CHO-k1 cells): 200 nM | % Translocation (PKCδ-GFP fusion protein; maximum translocation of PKCδ-GFP to the plasma membrane at the concentration printed in the same cell, CHO-k1 cells, SUW212: only brief translocation observed): 75% | PKC translocation behavior / dynamics of PKC activation (PKCδ-GFP fusion protein; time course, FIG. 6 panels C-D): delayed activation patterns

— US20220193029A1, “BRYOSTATIN COMPOUNDS FOR ENHANCEMENT OF IMMUNOTHERAPY” (priority 2019, published 2022)
